Laboratory results reported in ChEMBL document CHEMBL1136840 (Bioorg Med Chem Lett, 2009).

By UniProt entry, the sequences of proteins in these tests, tags left out. Residues count along the entry.
UniProt Q99N23, 19-324 limits assumed: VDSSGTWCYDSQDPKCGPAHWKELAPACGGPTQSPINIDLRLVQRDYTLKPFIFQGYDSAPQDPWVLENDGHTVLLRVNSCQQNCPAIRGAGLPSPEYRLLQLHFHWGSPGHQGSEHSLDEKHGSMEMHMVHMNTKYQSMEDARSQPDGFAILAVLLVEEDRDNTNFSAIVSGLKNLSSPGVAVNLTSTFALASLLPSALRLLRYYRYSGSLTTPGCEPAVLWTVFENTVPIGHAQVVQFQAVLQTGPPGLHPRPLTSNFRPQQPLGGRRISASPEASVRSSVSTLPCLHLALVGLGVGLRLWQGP

Target: Carbonic anhydrase 15 (Mus musculus, UniProt Q99N23)
Details: cos-7

For `O=[As](O)(O)c1ccccc1`, the pKi was 4.17.

pKi: −log10 of the molar value.
